Laboratory results: ChEMBL document CHEMBL1127409 (J Med Chem, 1994)

System: Glutamate NMDA receptor (Mus musculus)
Experiment: compound was tested for effective dose against NMDA by intra peritoneal administration
Assay type: functional, organism-based

O=C(CC1CCc2cc(Br)cc3[nH]c(=O)c(=O)n1c23)Nc1ccccc1 (stereo unspecified)
ED50: > 100 mg/kg
